From US7186797B2, “Polypeptide conjugates with extended circulating half-lives” (Epix Pharmaceuticals, Inc., priority 2001, dated 2007)

Columns and labels:
[1] = rabbit plasma pharmacokinetic study with 125I-labeled insulin and conjugates, HPLC speciation; format: in vivo, white New Zealand rabbits
[2] = unconjugated polypeptide drug, background statement; cited from earlier work
[3] = rabbits, subcutaneous injection, soluble monocomponent insulin; T. Kasama et al. 1980; cited from earlier work
[4] = rabbit, n=1, 100 μg injected, two compartment/bolus injection fit

For Insulin, the “persistence in plasma (in words)” value ([1]; rabbit plasma, HPLC speciation of 125I) was “barely detectable after 1 hr”, the “A (fit parameter)” value [1, 4] was 220 µg/L and the “B (fit parameter)” value [1, 4] was 30 µg/L. For the same substance, the Cmax [1, 4] was 250 ng/mL, the Vss [1, 4] was 0.62 L/kg and the “α Half-Life” value [1, 4] was 4.2 min. For the same substance, the “β Half-Life” value [1, 4] was 100 min, the Vss ([1]; rabbit, n=1, 100 μg injected, two compartment/bolus injection fit, listed as insulin) was 0.6 L/kg and the “AUC Fold Increase” value ([1]; rabbit, relative to insulin) was 1. The t1/2 [2] was 5 min and the biological half-life [3] was 5.50±0.49 minutes.
